Source: patent US8790689B2, “Tamper resistant transdermal dosage form” (dated 2014)

Legend:
[1] = Plasma pharmacokinetics after single intraperitoneal co-administration of fentanyl and naltrexone; conditions: for AUCinf (mean) / Cmax (mean) / tmax (mean) / t1/2 (mean): plasma
[2] = Plasma pharmacokinetics after IV co-injection of fentanyl and naltrexone
[3] = Plasma pharmacokinetics after 30 minute buccal application of fentanyl formulations; conditions: single administration of fentanyl to male beagle dogs, all time points
[4] = Group 1: 125 μg/kg fentanyl, 125 μg/kg naltrexone i.p.
[5] = Group 2: 125 μg/kg fentanyl, 31.3 μg/kg naltrexone i.p.
[6] = Group 3: 125 μg/kg fentanyl, 12.5 μg/kg naltrexone i.p.
[7] = IV co-injection, 45 μg/kg each of fentanyl and naltrexone

Row | Compound | AUCinf (mean) [1, 4] [ng·h/mL] | Cmax (mean) [1, 4] [ng/mL] | tmax (mean) [1, 4] [min] | AUCinf (mean) [1, 5] [ng·h/mL] | Cmax (mean) [1, 5] [ng/mL] | tmax (mean) [1, 5] [min] | AUCinf (mean) [1, 6] [ng·h/mL] | Cmax (mean) [1, 6] [ng/mL] | tmax (mean) [1, 6] [min] | also measured
1 | CCC(=O)N(c1ccccc1)C1CCN(CCc2ccccc2)CC1 | 3.473 | 14.916 | 10 | 7.923 | 22.176 | 10 | 9.519 | 16.555 | 10 | tmax (individual rats) ([1]; Group 1, SAN 1-5: fentanyl 125 μg/kg and naltrexone 125 μg/kg i.p.): 10 min; tmax (individual rats) ([1]; Group 2, SAN 6-10: fentanyl 125 μg/kg and naltrexone 31.3 μg/kg i.p.): 10 min; tmax (individual rats) ([1]; Group 3, SAN 11-15: fentanyl 125 μg/kg and naltrexone 12.5 μg/kg i.p.): 10 min; tmax value for all rats ([1]; all three groups, first time point post injection): 10 min; tmax, Fentanyl ([2]; IV 45 μg of fentanyl and naltrexone, individual dogs c2 CSCAGR, c3 CSDAFI, c4 CSDAJN, c5 CSCACV, c6 CSDAGC, c7 CSCAGD, c8 CSDATI, c9 CSDAGW, c10 CSDAYT): 4.8 min; AUClast (mean) [2, 7]: 11.579 ng·h/mL; Cmax (mean) [2, 7]: 8.828 ng/mL; tmax (mean) [2, 7]: 6 min
2 | norfentanyl | 4.939 | 2.551 | 21 | 5.131 | 1.907 | 47 | 4.094 | 1.809 | 59 | t1/2 (mean) [1, 4]: 101 min; t1/2 (mean) [1, 5]: 121 min; t1/2 (mean) [1, 6]: 140 min; tmax values, range over all rats ([1]; all three groups, post injection): 10 to 120 min; norfentanyl mean plasma concentration [3]: ≤ 600 pg/mL

Some compounds may have been tested in ways that are not shown here.
